## Apparent affinities of Ab-14 variants for a coronavirus HR2 peptide

Reference: Li et al. 2023, doi:10.1038/s41467-023-39022-2. File: FLAb, binding data.

Target peptide (SARS-CoV-2 spike, HR2 region): PDVDLGDISGINAS

Parent: Ab-14, a human scFv built as VH, a (GGGGS)3 linker, VL. Only the CDRs of the light chain vary.
VH: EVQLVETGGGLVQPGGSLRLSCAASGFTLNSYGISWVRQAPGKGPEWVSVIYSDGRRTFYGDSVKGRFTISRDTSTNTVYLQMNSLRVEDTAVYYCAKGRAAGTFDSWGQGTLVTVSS
VL: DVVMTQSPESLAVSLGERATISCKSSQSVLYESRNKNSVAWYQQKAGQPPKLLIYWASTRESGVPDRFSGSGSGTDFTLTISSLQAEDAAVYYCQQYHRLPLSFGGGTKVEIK

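Phage display of a naive human antibody library on the peptide gave the parent. The variants were designed computationally from a first round of random CDR variants and then made and measured. Group labels follow the data file (Ctrl: baseline library sampled from a position-specific scoring matrix, with some repeated check sequences; GP: Gaussian process model; HC: hill climbing; Gen: genetic algorithm; Gibbs: Gibbs sampling; a sequence that several methods proposed may carry one label only). AlphaSeq pools MATa yeast showing the antibodies with MATalpha yeast showing the peptide. Binding brings cells together so that they mate, and sequencing counts the barcode pairs among the diploids. The ratio of observed to expected reads was calibrated, replicate by replicate, on BCL2-family standards whose Kd was known from biolayer interferometry. There are six technical replicates.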

Variants are written as CDR1, CDR2 and CDR3 of the light chain (limits as in the source). Parent: KSSQSVLYESRNKNSVA, WASTRES, QQYHRLPLS.
This list holds designs with at most six substitutions.
Values are log10 of the apparent Kd in nM; lower means stronger binding.
Replicates are averaged; those with no signal do not enter the mean.
A pair that was not seen in any replicate is written "no signal"; this usually means weak binding, but a binder can also be missed.

Variant QLSQSFLYESRNKNSVA / GASTRES / QQYHRLTLS [GP_HC] gave 0.02 (6 of 6 replicates). With KLRQSTLYESRNKNSVA / LASQRES / QQYHRLPLS [GP_HC] the result was 1.20 (6 of 6 replicates). Variant KVSFSYLGESRNKNSVA / EASTRES / QQYHRLPLS [GP_HC] gave 0.38 (6 of 6 replicates). With KQSQSVLYEEVNKNSVA / DASTRES / QQYHRLPLS [GP_HC] the result was 0.14 (6 of 6 replicates). With VSSQSTLEESRNKNSVA / WASTRES / QQYFRLELW [Ctrl] the result was no signal (0 of 6 replicates). For KQSQMVLFESRNKNSVA / DASTRES / QQYHRLPLS [GP_HC], the assay gave -0.20 (6 of 6 replicates).

Variant KVSESYLLESRNKNSVA / EASTRES / QQYHRLPLS [GP_HC] gave 0.24 (6 of 6 replicates). For KSSQSVLYESRNKGSVA / NASTRES / QQYHYLPLS [Ctrl], the assay gave 2.23 (3 of 6 replicates). For WSSQNVLYESRNKNSVA / EASTRES / QQYHRLPLS [Ctrl], the assay gave 0.80 (6 of 6 replicates). With KLPQSWLYESRNKNSVA / QASQRES / QQYHRLPLS [GP_Gen] the result was -0.13 (6 of 6 replicates). With HVSPSVLYESRNKNSVA / NASTRES / QQYHRLPLS [GP_HC] the result was -0.39 (6 of 6 replicates). Variant KSSQSVLYESRNKNSVA / WTSTRES / QQYHRLPLS [Ctrl] gave 2.03 (2 of 6 replicates).

For KLSQSVLYESRNTNSVA / NASTRCS / QQYHRLPLS [GP_Gen], the assay gave 0.05 (6 of 6 replicates). For KSSQSVLYESRNKNSVA / DASTRES / QQYCRLPLA [Ctrl], the assay gave no signal (0 of 6 replicates). For KLSQSMLYESRNKNSVA / HASTRCS / QQYHRLPLS [GP_Gen], the assay gave 0.05 (6 of 6 replicates). With KVSQSVPYESRNKNSVA / DASQRES / QQYHRLPLS [GP_Gen] the result was -0.03 (6 of 6 replicates). Variant KSSQSVLYESENKNSVA / AASTRES / QQYHRLPLS [Ctrl] gave 0.38 (6 of 6 replicates). Variant KSSQSKLYESRNKNSVA / DASTRES / QQYHREPLS [Ctrl] showed 0.78 (6 of 6 replicates).

With KCSQSVLYEDRNKNSVA / WASEREF / QQYHRLPLS [Ctrl] the result was 2.19 (5 of 6 replicates). For KSSQSFWYESRNVNSVA / GASTRDS / QQYHRLPLS [GP_HC], the assay gave 0.37 (6 of 6 replicates). For KYSQNVLYESRNKNSVA / WASTRES / QLYTRLPLS [Ctrl], the assay gave no signal (0 of 6 replicates). Variant KLSQSMLYESRNKNSVA / NGSTRES / QQYHRLPLS [GP_Gen] gave -0.35 (6 of 6 replicates). For KSSQLVLYESRNENSVA / WASTRES / QQYHRLPLS [Ctrl], the assay gave 3.32 (1 of 6 replicates). With KSSQSVLYESRNKSSVA / WASTRES / QQYHRLPLS [Ctrl] the result was 2.18 (6 of 6 replicates).

With KSAQSDLMESRNFNSVA / DASTRES / QQYHRLPLS [GP_Gibbs] the result was -0.23 (6 of 6 replicates). For KSSQSVLYESRNKNSVA / SASTREM / QQYHRLPLS [Ctrl], the assay gave 0.77 (6 of 6 replicates). Variant KLSQPILYESRNKNSVA / WASTRES / QQYHRLPLS [Ctrl] gave no signal (0 of 6 replicates). For KSSQSVLYESVNHNSVA / QASTRES / QQYHRLPVS [Ctrl], the assay gave 1.92 (6 of 6 replicates). Variant KISQSVLYESRYKNSVA / WASTRES / QQYHRLPLR [Ctrl] showed 1.22 (6 of 6 replicates). With KQSQSDLYESRNKNSVA / EASTRES / QQYHRLPLS [GP_Gen] the result was 0.30 (6 of 6 replicates).

For HSSLSVFYESRNKNSVA / WASTRES / QQYHRLPLS [Ctrl], the assay gave 1.49 (1 of 6 replicates). Variant KVSQSVPYESRNKNSVA / WVSTRES / QQYHRLPLS [Ctrl] showed no signal (0 of 6 replicates). Variant KLPQSGLYESRNKNSVA / NASTREV / QQYHRLPLS [GP_Gen] gave -0.51 (6 of 6 replicates). Variant KLSQSWLYESRNKNSVA / NASTRMV / QQYHRLPLS [GP_Gen] gave 0.06 (6 of 6 replicates). Variant KSSISQLGEKRNKNSVA / EASTRES / QQYHRLPLS [GP_HC] showed 0.34 (6 of 6 replicates). Variant KFSQSVLYESRNKNSVA / QASTRES / QQYHRLPLS [GP_Gen] gave 0.28 (6 of 6 replicates).

Variant KLQQSELYESRNKNSVA / HASTRMS / QQYHRLPLS [GP_Gen] showed -0.04 (6 of 6 replicates). For KSSQSVLYESRNKNSVA / GASQRES / QQYHRLTLS [GP_HC], the assay gave -0.21 (6 of 6 replicates). Variant KWSQSVLYESTNFNSVA / NASTRES / QQYHRLPLS [Ctrl] gave 0.00 (6 of 6 replicates). Variant KSSQSVLYESGNTNSVA / WASTRES / QQYSRLPLS [Ctrl] showed no signal (0 of 6 replicates). Variant KMSQSMLYEQRAKNSVA / NASQRES / QQYHRLPLS [GP_Gibbs] showed -0.12 (6 of 6 replicates). For KWSQSVLYESRNKNSVA / WASTREL / QQYHRLPLS [Ctrl], the assay gave 1.87 (1 of 6 replicates).

With KSSQSFLYESRWKNSVA / AASQRES / QQYHRLPLS [GP_HC] the result was 1.12 (6 of 6 replicates). With KLSQSVLYEVRNKNSVA / WASTRES / QTYHRMPLS [Ctrl] the result was 1.30 (6 of 6 replicates). Variant KQSQSVKFESRNKNSVA / DASTRES / QQYHRLPLS [GP_HC] gave 0.09 (6 of 6 replicates).

Extract of 8 entries:

{"CDR-L1": "KLSQSMLYESRNKNSVA", "CDR-L2": "HASTRCS", "CDR-L3": "QQYHRLPLS", "group": "GP_Gen", "log10 Kd (nM), mean": "0.05", "replicates with signal": "6 of 6"}
{"CDR-L1": "KLSQSVLYEVRNKNSVA", "CDR-L2": "WASTRES", "CDR-L3": "QTYHRMPLS", "group": "Ctrl", "log10 Kd (nM), mean": "1.30", "replicates with signal": "6 of 6"}
{"CDR-L1": "KLPQSWLYESRNKNSVA", "CDR-L2": "QASQRES", "CDR-L3": "QQYHRLPLS", "group": "GP_Gen", "log10 Kd (nM), mean": "-0.13", "replicates with signal": "6 of 6"}
{"CDR-L1": "KSSISQLGEKRNKNSVA", "CDR-L2": "EASTRES", "CDR-L3": "QQYHRLPLS", "group": "GP_HC", "log10 Kd (nM), mean": "0.34", "replicates with signal": "6 of 6"}
{"CDR-L1": "KSSQSVLYESRNKNSVA", "CDR-L2": "SASTREM", "CDR-L3": "QQYHRLPLS", "group": "Ctrl", "log10 Kd (nM), mean": "0.77", "replicates with signal": "6 of 6"}
{"CDR-L1": "KSSQSKLYESRNKNSVA", "CDR-L2": "DASTRES", "CDR-L3": "QQYHREPLS", "group": "Ctrl", "log10 Kd (nM), mean": "0.78", "replicates with signal": "6 of 6"}
{"CDR-L1": "KQSQMVLFESRNKNSVA", "CDR-L2": "DASTRES", "CDR-L3": "QQYHRLPLS", "group": "GP_HC", "log10 Kd (nM), mean": "-0.20", "replicates with signal": "6 of 6"}
{"CDR-L1": "KLSQSMLYESRNKNSVA", "CDR-L2": "NGSTRES", "CDR-L3": "QQYHRLPLS", "group": "GP_Gen", "log10 Kd (nM), mean": "-0.35", "replicates with signal": "6 of 6"}

The parent sequence was in this pool as ten entries: three were never detected, three once, and four in most replicates, with averages from 0.34 to 2.37.
Background: pairings of all light chain designs with three empty control strains gave a value in 4% of cases (median 2.64, 5th percentile 1.59). Values in that range, when seen in few replicates, are hard to tell from nonspecific mating.
In the paper, a design with two or fewer of six values counts as a poor binder.
The range of this assay differs from that of the first round, and the authors advise against merging the two.